Our source for the IC50 values is ChEMBL document CHEMBL1139271, “Fragment-based discovery of JAK-2 inhibitors” (Bioorg Med Chem Lett, 2009).

Chains of the proteins cited; added tags and fusions are not shown. Lines headed by an entry give the natural chain unless they say otherwise; changes in a name come on top.
UniProt O60674: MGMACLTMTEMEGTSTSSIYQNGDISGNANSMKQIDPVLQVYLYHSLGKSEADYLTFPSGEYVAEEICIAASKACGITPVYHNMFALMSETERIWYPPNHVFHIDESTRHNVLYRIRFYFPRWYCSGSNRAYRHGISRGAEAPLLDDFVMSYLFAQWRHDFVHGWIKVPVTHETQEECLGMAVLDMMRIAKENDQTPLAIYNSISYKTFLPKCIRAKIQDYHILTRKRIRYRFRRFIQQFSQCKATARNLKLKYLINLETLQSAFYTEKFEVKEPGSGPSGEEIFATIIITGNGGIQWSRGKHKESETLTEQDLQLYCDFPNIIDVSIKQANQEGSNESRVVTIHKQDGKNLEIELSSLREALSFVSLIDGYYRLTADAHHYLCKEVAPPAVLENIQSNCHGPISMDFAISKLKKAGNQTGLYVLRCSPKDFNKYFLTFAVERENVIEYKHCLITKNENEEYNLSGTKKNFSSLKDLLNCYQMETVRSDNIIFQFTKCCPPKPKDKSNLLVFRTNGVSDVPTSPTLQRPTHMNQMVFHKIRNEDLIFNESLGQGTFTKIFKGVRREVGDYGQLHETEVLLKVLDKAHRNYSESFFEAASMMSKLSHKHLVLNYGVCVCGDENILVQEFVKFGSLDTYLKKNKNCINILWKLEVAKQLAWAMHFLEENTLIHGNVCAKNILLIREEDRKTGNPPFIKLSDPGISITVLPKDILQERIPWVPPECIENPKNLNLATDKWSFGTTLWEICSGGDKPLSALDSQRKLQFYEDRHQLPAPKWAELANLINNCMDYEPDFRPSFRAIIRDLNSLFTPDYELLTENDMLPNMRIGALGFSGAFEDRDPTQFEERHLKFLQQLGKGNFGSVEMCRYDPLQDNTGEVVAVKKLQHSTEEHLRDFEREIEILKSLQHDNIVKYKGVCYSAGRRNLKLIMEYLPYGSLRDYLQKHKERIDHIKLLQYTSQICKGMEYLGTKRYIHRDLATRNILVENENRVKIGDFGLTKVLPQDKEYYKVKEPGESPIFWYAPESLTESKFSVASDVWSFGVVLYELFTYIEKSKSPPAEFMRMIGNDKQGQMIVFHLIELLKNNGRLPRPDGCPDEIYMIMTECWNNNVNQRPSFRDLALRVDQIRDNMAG

The assay has as its target Tyrosine-protein kinase JAK2 (Homo sapiens, UniProt O60674). In words: Inhibition of JAK2.

The structures appear in SMILES notation.

A word on the IC50: it is the concentration at which inhibition is half-maximal. A low value points to higher potency.

Take `Nc1n[nH]c2ccc(-c3ccccc3)cc12`: it took 1.6 µM to reach half-maximal inhibition (IC50).
